We go through one compound from PubChem BioAssay AID687031 (Broad Institute, 2013).

This is a selection; strong and weak results do not stand in their true shares. Measured potencies and affinities stand elsewhere. Activity calls are given as the source filed them.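 How the source made its calls: active means fitted curve reaches 30% CPE protection at or below the top valid dose, with every test run called active; inconclusive means test runs disagree, some active and some not; inactive means every test run inactive, including effects in the wrong direction.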

A short description of the test: Dengue virus 2 cytopathic effect protection, dose response, BHK-21 cells, ATP luminescence, cherry-pick (AID 687031).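 Further: 0% = infected DMSO wells and 100% = uninfected cell wells.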 The settings on record: BHK-21 DENV2 CPE protection, 5 d; at 19.5 µM (top of the series).
In the case of `CCOC(=O)c1ccc(NP(C)(=O)Oc2ccc(Cl)cc2)cc1` (stereo unspecified), the CPE protection (higher = active) is inactive: 8.13%.
